Assay type: in vivo
Conditions: rat, oral
Protocol: Method for Rat Pharmacokinetic Studies: Rat “feed and bleed” studies were performed with LD and synthetically prepared LD:metal complexes wherein key PK parameters, such as maximum concentration (Cmax), AUC, and time of maximum concentration (tmax) were measured vis-à-vis the reference drug, LD.
In each experiment, male Sprague-Dawley rats with jugular vein catheters (250-300 g; n=5-10) are used. These rats were obtained from a commercial source (Harlan Laboratory Animals, Dublin, Va.) and housed individually. Water was available ad libitum. Rats were fed certified rodent chow ad libitum. After arrival, the health of rats was assessed and animals were placed in quarantine for a minimum of five days during which time general health was assessed. At the end of quarantine, rats were moved to permanent animal quarters for access and study.
All studies employed oral dosing using size 9 rodent gelatin capsules from Torpac (Fairfield, N.J.). […] Plasma samples are then treated according to developed methodology (e.g., FEBS Lett., 2002, 524 (1-3), 199-203), and analyzed (LC/MS/MS) for drug concentrations. Average plasma values (±SEM) for each time are calculated and PK parameters, including Cmax, tmax, and total amount absorbed (AUC0-6h), are determined using standard software. […]

## tris(LD)bismuth oxide [Bi(O)(dopa)3]
  tmax relative to LD/carbidopa: later tmax

From patent US10150792B2, “Bismuth-containing compounds, coordination polymers, methods for modulating pharmacokinetic properties of biologically active agents, and methods for treating patients” (priority 2010, dated 2018)
